The record followed here is patent publication US11285212B2, “Targeted nanoparticles” (California Institute Of Technology, priority 2013, dated 2022).

Data set [1] relates to BT-474. The data set can be described thus: Cytotoxicity assay, BT-474. It counts as cell-based, human. To be noted: BT-474, HER2 +, 72 h; CPT-containing items on CPT content.
The subject of data set [2] is breast cancer cell lines (BT-474, SKBR-3, MCF-7, MDA-MB-231). In words: Cytotoxicity assay, breast cancer cell lines. The format is cell-based. To be noted: concentrations of up to 0.5 μM.
In data set [3] the test system is BT-474 xenograft tumors. The conditions noted are these: 2.9 mg/kg. How it is done:
Treatments began on day 1. […] All treatments were freshly prepared and given via intravenous tail vein injection. Injections were standardized at 150 μl per 20 g body weight of mice. […] Tumor sizes were recorded three times a week using caliper measurements (length×width^2/2) and health of the animals was continuously monitored. Animals were euthanized when tumor volumes exceeded 1000 mm^3. Six weeks after beginning of the treatment, animals were euthanized by CO2 asphyxiation.

Data set [4] has as its system MCF-7. The data set can be described thus: Cytotoxicity assay, MCF-7. To be noted: MCF-7, HER2 −, 72 h; CPT-containing items on CPT content. It counts as cell-based.
In data set [5] the test system is MDA-MB-231. The data set can be described thus: Cytotoxicity assay, MDA-MB-231. The format is cell-based. To be noted: MDA-MB-231, HER2 −, 72 h; CPT-containing items on CPT content.
The test system of data set [6] is SKBR-3. The data set can be described thus: Cytotoxicity assay, SKBR-3. To be noted: SKBR-3, HER2 +, 72 h; CPT-containing items on CPT content. It counts as cell-based.

Consider “Herceptin: human IgG1 antibody (Herceptin®)”, for which the IC50 entry in data set [1] was “no value^a”. Also, in data set [2], the “effects in HER2− cell lines” value is “no effects observed”. The “Nend, animals surviving to end of study” value in data set [3] (i.v. once per week for 2 weeks) is 6/6. In data set [3] (once per week for 2 weeks), the Mean tumor volume stood at 278 mm^3; the Median tumor volume is given as 245 mm^3; the “NTRD, treatment related death” value is on record as 0/0/0; the “Neuthan, euthanized due to exceeding tumor size limit of 1000 mm^3” value is recorded as 0/0/0. In data set [3] (once per week for 2 weeks), the “result compared to control group” value is reported as “significant compared to control group”. In addition, the IC50 result in data set [4] is on record as “no effect”. In data set [5], the IC50 result was “no effect”. Also, in data set [6], the IC50 entry is “no value^a”.
